Test results published in article PMC4960888, “Gd-nanoparticles functionalization with specific peptides for ß-amyloid plaques targeting” (Journal of Nanobiotechnology, 2016).

Protein sequences, listed by entry. Tags and fused reporters are not part of them. Residues count along the entry.
UniProt P05067, 672-713 limits assumed: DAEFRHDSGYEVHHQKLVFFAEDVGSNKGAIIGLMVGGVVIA

Experiments:
Aβ(1–42) fibrils = Aβ(1–42) fibrils (Homo sapiens, UniProt P05067); assay: Partition (spectrofluorometric) binding to Aβ(1–42) fibrils; details: read-out: Kd, PIB partition binding; 20 µM fibrils, PIB 0.01–4 µM, 60 min room temperature, centrifugation; fluorescence λexc 350/λem 420 nm; Michaelis model 1:1
V30M-TTR fibrils = assay: Partition (spectrofluorometric) binding to V30M-TTR fibrils; design: species or system human; details: read-out: Kd, PIB partition binding; 20 µM fibrils, PIB 0.01–4 µM, 60 min room temperature, centrifugation; fluorescence λexc 350/λem 420 nm; Michaelis model 1:1
[1] = system: Aβ amyloid plaques (APPswe/PS1A246E/TTR(−/−) transgenic mouse brain sections); assay: Immunohistochemistry on AD mouse brain sections with amyloid plaques; details: 10 months old APPswe/PS1A246E/TTR(−/−) hippocampus; nanoparticles at 3 nM Cy5.5 (2 mM Gd^3+) with 3 mM ungrafted nanoparticles, or PIB 1 µM; 1h30 RT; fluorescence

COc1ccc2nc(-c3ccc(N)cc3)sc2c1
Kd (Aβ(1–42) fibrils): 6 µM | Kd (V30M-TTR fibrils): 10 µM | binding/staining of amyloid plaques in AD mouse brain sections [1]: robust fluorescent dots with diffusing labeling localized in AD mouse hippocampus
